Experimental findings from patent publication US20100152429A1, “SODIUM SALT OF DISACCHARIDE COMPOUND, METHOD FOR PRODUCING THE SAME, AND USE OF THE SAME” (Eisai R&D Management Co., Ltd., priority 2006, published 2010) are described below.

The nature of the data set: Storage Safety Test: impurity generation on storage at 25° C., HPLC.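 As to all read-outs here: HPLC peak area percentages of three decomposition products, each sample run alongside a methanol-only blank.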 It counts as physicochemical. As to conditions: stored at 25° C.; for Impurity generation ratio Impurity A / Impurity generation ratio Impurity B / Impurity generation ratio Impurity C: Table 5 summary, monthly basis, percentage of area; for Impurity A Generation ratio / Impurity B Generation ratio / Impurity C Generation ratio: converted to a monthly basis. On the procedure:
The salts of examples 2-4 and comparative example 1 were put in glass bottles with screw caps, and stored for 30 days at 25° C., and the generation ratio of impurities A, B and C were determined as follows.
Each salt of examples 2-4 and comparative example 1 was dissolved in methanol to make a solution of concentration 5 mg/ml. When HPLC analysis was performed under the conditions shown in Table 1 for each solution and blank solution (methanol only), three types of decomposition product were identified, and the generation ratio (converted to a monthly basis) was calculated for each of the three decomposition products (impurities A, B and C) as a percentage of area.

SMILES strings stand for the structures.

With `CCCCCC/C=C\CCCCCCCCCC(=O)N[C@H]1[C@H](OC[C@H]2O[C@H](OP(=O)([O-])[O-])[C@H](NC(=O)CC(=O)CCCCCCCCCCC)[C@@H](OCCCCCCCCCC)[C@@H]2O)O[C@H](COC)[C@@H](OP(=O)([O-])[O-])[C@@H]1OCC[C@@H](CCCCCCC)OC.[Na+].[Na+].[Na+].[Na+]` [Example 4], under “listed as Ex. 4”, the “Impurity generation ratio Impurity A” value came to 0.363, the “Impurity generation ratio Impurity B” value was 1.455 and the “Impurity generation ratio Impurity C” value amounted to 0.063. Moreover, under “listed as 3.93 Na salt”, the “Impurity A Generation ratio” value amounted to 0.363 %/month, the “Impurity B Generation ratio” value is 1.455 %/month and the “Impurity C Generation ratio” value is listed as 0.063 %/month.
For the compound `CCCCCC/C=C\CCCCCCCCCC(=O)N[C@H]1[C@H](OC[C@H]2O[C@H](OP(=O)(O)O)[C@H](NC(=O)CC(=O)CCCCCCCCCCC)[C@@H](OCCCCCCCCCC)[C@@H]2O)O[C@H](COC)[C@@H](OP(=O)(O)O)[C@@H]1OCC[C@@H](CCCCCCC)OC` [Example 2], the “Impurity generation ratio Impurity A” value turned out to be 0.000, the “Impurity generation ratio Impurity B” value turned out to be 0.000, the “Impurity generation ratio Impurity C” value stood at 0.282 and the “Impurity A Generation ratio” value was found to be 0.00 %/month. The “Impurity B Generation ratio” value was determined as 0.00 %/month and the “Impurity C Generation ratio” value amounted to 0.282 %/month.
`CCCCCC/C=C\CCCCCCCCCC(=O)N[C@H]1[C@H](OC[C@H]2O[C@H](OP(=O)([O-])[O-])[C@H](NC(=O)CC(=O)CCCCCCCCCCC)[C@@H](OCCCCCCCCCC)[C@@H]2O)O[C@H](COC)[C@@H](OP(=O)([O-])[O-])[C@@H]1OCC[C@@H](CCCCCCC)OC.[Na+].[Na+].[Na+].[Na+]` [Example 3]: under “listed as Ex. 3”, the “Impurity generation ratio Impurity A” value was 0.072, the “Impurity generation ratio Impurity B” value came to 0.267 and the “Impurity generation ratio Impurity C” value stood at 0.072. In addition, for the setting “listed as 3.67 Na salt”, the “Impurity A Generation ratio” value turned out to be 0.072 %/month, the “Impurity B Generation ratio” value amounted to 0.267 %/month and the “Impurity C Generation ratio” value is 0.072 %/month.
For `CCCCCCC=CCCCCCCCCCC(=O)NC1C(OCC2OC(OP(=O)([O-])[O-])C(NC(=O)CC(=O)CCCCCCCCCCC)C(OCCCCCCCCCC)C2O)OC(COC)C(OP(=O)([O-])[O-])C1OCCC(CCCCCCC)OC.[Na+].[Na+].[Na+].[Na+]` (stereo not drawn) [Comparative Example 1, reference compound], the “Impurity generation ratio Impurity A” value came out at 0.729, the “Impurity generation ratio Impurity B” value stood at 3.117, the “Impurity generation ratio Impurity C” value stood at 0.033 and the “Impurity A Generation ratio” value was 0.729 %/month. The “Impurity B Generation ratio” value is given as 3.117 %/month and the “Impurity C Generation ratio” value was 0.033 %/month.
